Laboratory results reported in ChEMBL document CHEMBL1773067.

Sequences of proteins named here, by UniProt entry; tags and fusion partners are left off. A change or cut given only in a name is not applied to a line headed by its entry.
UniProt Q9Y2R2, whole entry: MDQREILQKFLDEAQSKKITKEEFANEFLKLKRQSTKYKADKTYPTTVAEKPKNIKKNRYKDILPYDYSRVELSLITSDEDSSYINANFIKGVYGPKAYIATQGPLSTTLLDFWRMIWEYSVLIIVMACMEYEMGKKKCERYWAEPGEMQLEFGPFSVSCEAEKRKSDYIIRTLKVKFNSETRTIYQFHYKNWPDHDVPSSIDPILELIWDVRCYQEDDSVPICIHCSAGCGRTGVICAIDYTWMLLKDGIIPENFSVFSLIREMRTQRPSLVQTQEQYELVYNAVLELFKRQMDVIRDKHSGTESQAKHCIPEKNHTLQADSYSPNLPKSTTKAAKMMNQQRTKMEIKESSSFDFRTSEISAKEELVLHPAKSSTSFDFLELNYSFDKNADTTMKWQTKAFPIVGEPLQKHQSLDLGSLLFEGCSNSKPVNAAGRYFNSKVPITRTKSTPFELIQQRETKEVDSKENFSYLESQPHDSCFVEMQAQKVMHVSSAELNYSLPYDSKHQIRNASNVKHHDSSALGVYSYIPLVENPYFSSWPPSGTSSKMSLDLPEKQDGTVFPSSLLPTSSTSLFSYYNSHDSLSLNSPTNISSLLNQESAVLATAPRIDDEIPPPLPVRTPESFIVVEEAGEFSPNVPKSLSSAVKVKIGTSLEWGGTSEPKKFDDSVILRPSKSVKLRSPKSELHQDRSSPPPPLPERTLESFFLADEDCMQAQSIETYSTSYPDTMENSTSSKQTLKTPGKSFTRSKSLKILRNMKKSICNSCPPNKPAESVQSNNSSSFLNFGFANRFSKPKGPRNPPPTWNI
UniProt P18433: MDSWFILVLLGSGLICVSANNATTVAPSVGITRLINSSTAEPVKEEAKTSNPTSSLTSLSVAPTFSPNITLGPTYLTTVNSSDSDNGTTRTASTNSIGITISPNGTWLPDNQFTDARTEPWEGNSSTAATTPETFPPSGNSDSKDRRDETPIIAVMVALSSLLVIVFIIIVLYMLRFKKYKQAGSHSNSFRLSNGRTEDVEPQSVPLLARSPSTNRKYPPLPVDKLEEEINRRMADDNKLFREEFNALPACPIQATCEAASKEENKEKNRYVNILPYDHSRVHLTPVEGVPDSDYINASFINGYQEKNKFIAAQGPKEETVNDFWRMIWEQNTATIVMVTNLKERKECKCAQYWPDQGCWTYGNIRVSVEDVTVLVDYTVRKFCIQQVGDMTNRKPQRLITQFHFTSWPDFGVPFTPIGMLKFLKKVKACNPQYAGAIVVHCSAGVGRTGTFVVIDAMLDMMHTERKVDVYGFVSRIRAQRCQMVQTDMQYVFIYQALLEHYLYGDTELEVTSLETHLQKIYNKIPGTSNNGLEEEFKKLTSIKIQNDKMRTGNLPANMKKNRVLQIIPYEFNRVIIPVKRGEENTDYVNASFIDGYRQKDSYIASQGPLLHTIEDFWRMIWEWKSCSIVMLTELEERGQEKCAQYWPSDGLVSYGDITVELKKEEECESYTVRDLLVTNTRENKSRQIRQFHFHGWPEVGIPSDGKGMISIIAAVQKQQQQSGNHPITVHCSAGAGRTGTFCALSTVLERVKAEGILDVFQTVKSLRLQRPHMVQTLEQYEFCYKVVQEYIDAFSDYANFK
UniProt Q06124, whole entry: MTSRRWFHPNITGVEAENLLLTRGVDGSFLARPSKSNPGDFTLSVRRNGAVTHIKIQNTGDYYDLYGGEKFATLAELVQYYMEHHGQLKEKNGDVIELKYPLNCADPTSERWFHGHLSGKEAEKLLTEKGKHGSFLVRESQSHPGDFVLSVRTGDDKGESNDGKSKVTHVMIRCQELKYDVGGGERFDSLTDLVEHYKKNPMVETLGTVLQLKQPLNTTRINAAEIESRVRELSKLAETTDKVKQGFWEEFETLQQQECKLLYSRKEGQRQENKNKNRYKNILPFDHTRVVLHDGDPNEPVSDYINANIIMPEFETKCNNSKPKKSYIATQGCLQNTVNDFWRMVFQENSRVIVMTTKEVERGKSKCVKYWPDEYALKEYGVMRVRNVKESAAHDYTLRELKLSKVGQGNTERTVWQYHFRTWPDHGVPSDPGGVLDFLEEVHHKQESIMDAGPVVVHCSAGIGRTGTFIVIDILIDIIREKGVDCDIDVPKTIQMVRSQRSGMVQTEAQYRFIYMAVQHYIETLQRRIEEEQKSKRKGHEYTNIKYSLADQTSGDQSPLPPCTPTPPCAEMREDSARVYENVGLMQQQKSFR

How the values were obtained:
[1] = target: Tyrosine-protein phosphatase non-receptor type 22 (Homo sapiens, UniProt Q9Y2R2); assay: Inhibition of human Lyp expressed in Escherichia coli after 5 mins by microplate spectrophotometer analysis
[2] = target: Receptor-type tyrosine-protein phosphatase alpha (Homo sapiens, UniProt P18433); assay: Inhibition of human PTPalpha expressed in Escherichia coli after 5 mins by microplate spectrophotometer analysis
[3] = target: T1, Protein tyrosine phosphatase type IVA 1 (Homo sapiens, UniProt Q93096); assay: Inhibition of human PRL1 expressed in Escherichia coli after 5 mins by microplate spectrophotometer analysis
T1 sequence (Q93096 whole entry): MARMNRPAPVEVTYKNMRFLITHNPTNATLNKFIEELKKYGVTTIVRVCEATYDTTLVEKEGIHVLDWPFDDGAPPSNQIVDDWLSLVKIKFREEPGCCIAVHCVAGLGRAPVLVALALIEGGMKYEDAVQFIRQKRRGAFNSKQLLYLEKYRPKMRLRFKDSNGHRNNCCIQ

[4] = target: Tyrosine-protein phosphatase non-receptor type 11 (Homo sapiens, UniProt Q06124); assay: Inhibition of human SHP2 expressed in Escherichia coli after 5 mins by microplate spectrophotometer analysis

Row | SMILES | IC50 [1] [µM] | IC50 [2] [µM] | IC50 [3] [µM] | IC50 [4] [µM]
1 | CCCCc1ccc(NS(=O)(=O)c2ccc3c4c(cccc24)C(=O)N3)cc1 | > 50 |  |  | 
2 | COc1ccc(N2CCN(C(c3cccs3)C(C)NC(=O)C(=O)NCc3ccco3)CC2)cc1 (stereo unspecified) | > 50 | > 50 | > 50 | 
3 | CC(NC(=O)C(=O)NCc1cccnc1)C(c1cccs1)N1CCN(c2ccc(F)cc2)CC1 (stereo unspecified) |  | > 50 |  | > 50
